Organism: Homo sapiens
Experiment: Selectivity ratio of IC50 for human carbonic anhydrase 2 to IC50 for carbonic anhydrase 9

Row | Compound | Ratio IC50
1 | O=C1/C(=C\c2ccc(O)c(O)c2)S/C(=N/c2ccccc2)N1Cc1ccncc1 | 14
2 | O=C1/C(=C\c2ccc([N+](=O)[O-])cc2)S/C(=N/c2ccccc2)N1Cc1ccncc1 | 9

Source: ChEMBL document CHEMBL4145457, “Design, synthesis and biological evaluation of novel pyridine-thiazolidinone derivatives as anticancer agents: Targeting human carbonic anhydrase IX” (Eur J Med Chem, 2018)
